This assay deals with dopamine receptor D1 (DRD1) (Homo sapiens, UniProt P21728). Particulars: 1 μg DRD1 plasma membranes, 15 min induction (FIG. 10).

Protein sequences, listed by entry. Tags and fused reporters are not part of them.
UniProt P21728, whole entry: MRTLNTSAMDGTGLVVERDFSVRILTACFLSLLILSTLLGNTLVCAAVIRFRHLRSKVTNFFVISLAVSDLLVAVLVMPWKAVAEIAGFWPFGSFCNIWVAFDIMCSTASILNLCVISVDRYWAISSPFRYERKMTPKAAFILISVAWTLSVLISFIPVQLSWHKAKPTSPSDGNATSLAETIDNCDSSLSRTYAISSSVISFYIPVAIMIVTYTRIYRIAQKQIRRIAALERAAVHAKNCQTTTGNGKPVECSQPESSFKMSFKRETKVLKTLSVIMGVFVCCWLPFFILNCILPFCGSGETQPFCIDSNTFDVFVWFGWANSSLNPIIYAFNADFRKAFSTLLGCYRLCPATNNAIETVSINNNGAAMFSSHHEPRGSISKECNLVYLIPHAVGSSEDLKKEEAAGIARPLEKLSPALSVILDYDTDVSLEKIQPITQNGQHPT

As to `CCCN1CCC[C@@H]2Cc3n[nH]cc3C[C@H]21` [quinpirole], the “luminescent signal as agonist concentration increases (DRD1 activation)” value is on record as “not”.
